## scFv variants of Ab-14 (light chain) against a SARS-CoV-2 spike peptide

The target is the same throughout: PDVDLGDISGINAS, from the HR2 region of SARS-CoV-2 spike.

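The variants were designed computationally from a first round of random CDR variants and then made and measured. Several design methods are mixed in this list. The scFvs were displayed on barcoded MATa yeast, the peptide on MATalpha yeast. Mating (16 h, 30 °C) was followed by selection of diploids and sequencing of their barcodes. Each replicate has its own calibration line, from reference interactions of the BCL2 family. There are six technical replicates.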

Parent scFv Ab-14: VH joined to VL by a (GGGGS)3 linker. Changes lie in the light chain CDRs alone.
VH: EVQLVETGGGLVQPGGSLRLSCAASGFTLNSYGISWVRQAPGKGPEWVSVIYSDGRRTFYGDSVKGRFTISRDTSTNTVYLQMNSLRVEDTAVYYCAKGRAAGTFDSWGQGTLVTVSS
VL: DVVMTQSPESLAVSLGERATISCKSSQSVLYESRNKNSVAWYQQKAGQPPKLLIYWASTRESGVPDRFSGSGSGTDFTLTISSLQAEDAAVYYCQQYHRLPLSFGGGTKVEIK

Variants are written as CDR1, CDR2 and CDR3 of the light chain (limits as in the source). Parent: KSSQSVLYESRNKNSVA, WASTRES, QQYHRLPLS.
Affinities are written as log10 Kd with Kd in nM; a lower number is a better binder.
The mean shown is taken over the replicates in which the pair was detected.
"ND" marks a missing value. The strain was present, yet no cells mated with the target were sequenced in that replicate, which points to weak or no binding.
A sequence measured in both rounds can read differently, since the two assays cover different ranges.
Background: pairings of all light chain designs with three empty control strains gave a value in 4% of cases (median 2.64, 5th percentile 1.59). Values in that range, when seen in few replicates, are hard to tell from nonspecific mating.
The parent sequence was in this pool as ten entries: three were never detected, three once, and four in most replicates, with averages from 0.34 to 2.37.
The authors' rule: three or more of the six replicates give a measured affinity, fewer mean a poor binder.

| CDR-L1 | CDR-L2 | CDR-L3 | log10 Kd (nM) by replicate | mean log10 Kd (nM) |
|---|---|---|---|---|
| KSSQSVQYESRNKNSVA | WAQTRES | QQYHRLPLS | ND 1.19 ND 1.93 2.30 ND | 1.81 |
| QLGAVLDMTSKNKNSVA | EQSTREN | QQYHRLPLS | 0.34 0.29 0.37 0.20 0.42 0.40 | 0.34 |
| KLSMSVWYEARMKNSVA | EASTRES | QQYHRLPLS | 0.41 0.19 0.18 0.30 0.38 0.33 | 0.30 |
| KLEQSQEYESRNKNSVA | NASTRES | QQYHRLPLS | -0.31 -0.76 -0.21 -0.80 -0.37 -0.36 | -0.47 |
| KISQSVPYESRNKNSVA | EASTRES | QKYHHLPLS | ND ND ND ND ND ND | ND |
| TLGNLMGGQNEMDNSIA | GHETRVQ | QQYWHLPLV | 0.95 1.14 0.77 0.56 0.35 0.78 | 0.76 |
| KSSQSVDYESTNKNSVA | NASTRES | QQYHGLPLS | 0.57 1.91 1.01 ND 2.25 1.20 | 1.39 |
| HSSPSVHYESRNKNNVA | NASTRES | QQYHRLPLS | -0.46 -0.65 -0.87 -0.74 -0.73 -0.46 | -0.65 |
| MMSSLMGYESRHINNVA | QTTTRES | QQYDRLPLI | 0.31 -0.03 -0.13 -0.35 0.03 0.26 | 0.01 |
| KLRQSTLYESRNKNSVA | WASTRCS | QQYHRLPLS | 0.74 0.73 0.17 0.52 0.41 0.50 | 0.51 |
| TLTQSVGMESHNKNSVA | DLSTRGS | QQYHRLPLS | 0.26 0.45 0.59 0.07 0.38 0.38 | 0.36 |
| KSSQSVLYESRNKNSVA | SASHRES | QQYHREPLS | ND 1.57 2.20 ND ND ND | 1.88 |
| NFSQMVLSGSTLKNSVA | HASTREE | QQYHRLPLI | 0.60 0.53 0.51 0.59 0.92 0.69 | 0.64 |
| KFSQSVLYESRNKNSVA | WASTRES | QRYHRLPLS | 2.61 2.98 ND 2.91 2.22 2.20 | 2.58 |
| KSSISYLYESRNKKSRA | EFSTRES | QQYHRLPLS | ND ND ND ND ND ND | ND |
| KLHQSWLYLSRNHNSVA | HASQRCS | QQYHRLPLS | 1.03 0.85 0.88 1.35 0.77 1.16 | 1.01 |
| KSPQSQEYESRNKNSVA | HASTRED | QQYHCLPLS | 0.13 -0.30 0.44 0.33 0.14 0.24 | 0.16 |
| KLLQTTMNETRNRNNVA | HMTTRED | QQYHRLPLS | 1.24 0.64 1.45 0.94 1.32 1.26 | 1.14 |
| KSIQSVLYESRNKNSVA | WASDRES | QQYHRLPLS | ND ND ND ND ND ND | ND |
| KLSMVTGHMSVSKNNVA | EMETRAN | QQYDRLPLS | 0.49 0.36 0.22 0.14 0.30 0.59 | 0.35 |
| KWLQSQEYESRNKNSVA | HASTRED | QQYHCLPLS | ND ND ND ND ND ND | ND |
| HVSEMIFAQMKARNSVA | ENNTREA | QQYDRLPLS | ND 2.73 1.79 4.05 2.61 2.70 | 2.78 |
| HLSQSVLYESRNKNSVA | EASTRCS | QQYHRLPLS | 0.04 0.35 0.00 -0.04 -0.10 0.34 | 0.10 |
| KIRVHHLMFSQNESNIA | GMSVRSE | QQYYHLPLT | 0.26 0.30 0.30 0.25 0.13 0.62 | 0.31 |
| KLMNSMLYESRNTNSVA | HASRRES | QQYHRLPLS | 0.85 0.76 0.78 0.61 0.61 0.98 | 0.77 |
| QFFSRWGQLTEIRNAVA | DATEVAD | QQYMHLPLT | 1.03 1.08 1.02 1.09 0.83 1.22 | 1.04 |
| HVSSMDMTDGGIINSVA | GDKLLER | QQYMRLPLS | 0.16 0.18 0.61 0.85 0.49 0.79 | 0.51 |
| KLREVHHVESKQKNNVA | DNSTRES | QDYYRLPLS | 2.21 ND ND ND 3.59 ND | 2.90 |
| KLSQMVEYESRNKNSVA | NASTRES | QQYHRLPLS | 0.54 0.24 -0.46 -0.24 0.38 0.90 | 0.23 |
| ALNQKGFALHGDRQSIA | HSDTRLA | QQYYRLPLA | 0.65 0.93 0.73 0.41 0.63 0.60 | 0.66 |
| KMEQSELYESRNKNSVA | NASTRES | QQYHRLPLS | -0.13 0.29 -0.10 -0.41 0.02 -0.14 | -0.08 |
| KSWQSVLYESRNKNSVA | WASTRED | QQYHRLPLS | ND ND ND ND ND ND | ND |
| KVSQSVLYESRNKNSVA | HASQRES | QQYHRLPLS | 0.23 -0.05 0.09 0.06 0.17 0.17 | 0.11 |
| KSFFSEPGESRNKNSVA | EASTRES | QQYHRLPLS | 1.23 1.19 1.17 0.92 1.06 1.56 | 1.19 |
| MFSSLMEYGQRYRNSVA | QASVREN | QQYHWLPLS | 1.56 1.97 1.14 2.03 1.33 1.92 | 1.66 |
| KLMMFMQEIGIMKNNIA | NLEIGAR | QQYAQLPLV | ND ND ND ND ND ND | ND |
| KITQTMRFEQKQKNNIA | EVTTRSK | QQYYRLPLA | 1.22 1.08 0.77 0.51 0.83 0.95 | 0.89 |
| KVSGFMRGLMERKDSIA | DNETRNS | QQYDRLPLS | 1.62 2.14 0.86 1.96 1.43 1.71 | 1.62 |
| KHSQSVLYESRNKNSIA | AASTRES | QQYHRLPLS | 0.53 0.22 0.54 0.33 0.46 0.54 | 0.44 |
| KVSQSHLYEERNKNNVA | QASDRES | QQYHRLPLS | 0.04 -0.14 -0.05 -0.35 -0.29 -0.17 | -0.16 |
| HMSMLTLGGMRQRNSVA | QMTTREN | QQYDRLPLA | 0.41 0.54 0.69 0.27 0.85 0.68 | 0.57 |
| QIAEQNMHVGIGANAIA | NATVRSA | QQYLRLPLM | 0.87 0.23 0.05 0.60 0.44 0.80 | 0.50 |
| MISQSFLIGMKAKNSVA | QTSTREE | QQYDRLPLM | 0.24 0.26 0.00 0.15 0.30 0.39 | 0.22 |
| HLSESVKMESRNTNSVA | DNSTRGS | QQYDRLPLS | 2.02 1.66 1.64 1.87 1.88 2.20 | 1.88 |
| KLCQSVLYESRNKNSVA | EASTRED | QQYHRLPLS | -0.06 0.19 -0.07 -0.21 0.03 0.21 | 0.01 |
| KVSPSWEYESRNKQSVA | HASQREE | QQYHRLPLS | 0.05 0.06 0.06 -0.21 0.05 0.19 | 0.03 |
| KFSQSVLYPSRNKNSVA | TASTRES | QQYHRLPLS | 0.99 0.50 0.71 0.76 0.60 0.85 | 0.73 |

Reference: Li et al. 2023, doi:10.1038/s41467-023-39022-2. File: FLAb, binding data.